Values of other authors, collected in patent US5891845A, “Drug delivery systems utilizing liquid crystal structures” (Fuisz Technologies Ltd., priority 1997, dated 1999).

Settings: beyond which liquid crystalline phases may form

For “d-α-tocopheryl polyethylene glycol 1000 succinate [Vitamin E TPGS]”, the “concentration up to which solutions with water form” value is listed as “approximately 20 % wt”.
